For orientation: IC50 means the concentration that gives 50% inhibition.

For three substances, IC50 results are on record in patent US20140241984A1.

Experiment [1] concerns the target Syn-O2. In words: inhibition ELISA: soluble fibrils titrated against 10 ng/ml Syn-O2, binding to coated α-synuclein fibrils read. A general note: An ELISA detects its analyte on a solid surface through an enzyme-linked reagent.
In experiment [2] the target is Syn-F2. In words: inhibition ELISA: soluble fibrils titrated against 10 ng/ml Syn-F2, binding to coated α-synuclein fibrils read.
Experiment [3] deals with Syn-F1. The experiment can be described thus: inhibition ELISA: soluble fibrils titrated against 10 ng/ml Syn-F1, binding to coated α-synuclein fibrils read; soluble fibrils as inhibitor, not monomers.
The target in experiment [4] is Syn-O1. In words: inhibition ELISA: soluble fibrils titrated against 10 ng/ml Syn-O1, binding to coated α-synuclein fibrils read.
In experiment [5] the target is Syn-O4. The experiment can be described thus: inhibition ELISA: soluble fibrils titrated against 10 ng/ml Syn-O4, binding to coated α-synuclein fibrils read.
For experiment [6], the target named is Syn-O3. The experiment can be described thus: inhibition ELISA: soluble fibrils titrated against 10 ng/ml Syn-O3, binding to coated α-synuclein fibrils read.
Experiment [7] concerns the target Syn-1 (Mouse anti-α-synuclein; BD Bioscience). The experiment can be described thus: inhibition ELISA: soluble monomers titrated against 10 ng/ml Syn-1, binding to coated α-synuclein fibrils read.
Experiment [8] has as its target Syn-F1. In words: inhibition ELISA: soluble monomers titrated against 10 ng/ml Syn-F1, binding to coated α-synuclein fibrils read.
Experiment [9] concerns the target Syn-O2. The experiment can be described thus: inhibition ELISA: soluble monomers titrated against 10 ng/ml Syn-O2, binding to coated α-synuclein fibrils read.
Experiment [10] has as its target Syn-O3. In words: inhibition ELISA: soluble monomers titrated against 10 ng/ml Syn-O3, binding to coated α-synuclein fibrils read.
Experiment [11] deals with Syn-O1. In words: inhibition ELISA: soluble monomers titrated against 10 ng/ml Syn-O1, binding to coated α-synuclein fibrils read.
Experiment [12] has as its target Syn-F2. In words: inhibition ELISA: soluble monomers titrated against 10 ng/ml Syn-F2, binding to coated α-synuclein fibrils read.
For experiment [13], the target named is Syn-O4. In words: inhibition ELISA: soluble monomers titrated against 10 ng/ml Syn-O4, binding to coated α-synuclein fibrils read.

As for “α-synuclein fibrils (from UniProt P37840 1-140) (other; other documents disagree on this pair)”, the 50% inhibitory concentration (IC50) with Syn-O2 [1] amounted to 0.12 nM; with Syn-F2 [2], 1.18 nM; in the experiment with Syn-F1 [3] it was 0.12 nM; with Syn-O1 [4], 0.37 nM; with Syn-O4 [5], 0.52 nM; in the experiment with Syn-O3 [6] it was 0.47 nM.
Substance “α-synuclein monomers (from UniProt P37840 1-140)” showed a half-inhibitory concentration (IC50) in experiment [7] of 1 nM.
As to “α-synuclein monomers (from UniProt P37840 1-140) (other; other documents disagree on this pair)”, the 50% inhibitory concentration (IC50) with Syn-F1 [8] was 2080 nM; with Syn-O2 [9], 3280 nM; with Syn-O3 [10] it was 5330 nM; with Syn-O1 [11], 4790 nM; in the experiment with Syn-F2 [12], 3710 nM; with Syn-O4 [13] it was 3600 nM.
